System: M. tuberculosis H37Rv
Assay: Anti-tuberculosis bioassay (tetrazolium microplate MIC)
Assay type: cell-based
Details: Mycobacterium tuberculosis, read-out: Mycobacterium MIC H37Rv

COc1cc(/C=N\Nc2ncnc3sc4c(c23)CCCC4)ccc1O [II-15]
MIC: > 25 µg/mL

Reference: patent US9061984B2 (University of Louisville Research Foundation, Inc., priority 2008, dated 2015)
